Laboratory results reported in US8357705B2 (priority 2008, dated 2013).

Protein sequences, listed by entry. Tags and fused reporters are not part of them. Lines headed by an entry give the natural chain unless they say otherwise; changes in a name come on top.
UniProt P35372, whole entry, looked up: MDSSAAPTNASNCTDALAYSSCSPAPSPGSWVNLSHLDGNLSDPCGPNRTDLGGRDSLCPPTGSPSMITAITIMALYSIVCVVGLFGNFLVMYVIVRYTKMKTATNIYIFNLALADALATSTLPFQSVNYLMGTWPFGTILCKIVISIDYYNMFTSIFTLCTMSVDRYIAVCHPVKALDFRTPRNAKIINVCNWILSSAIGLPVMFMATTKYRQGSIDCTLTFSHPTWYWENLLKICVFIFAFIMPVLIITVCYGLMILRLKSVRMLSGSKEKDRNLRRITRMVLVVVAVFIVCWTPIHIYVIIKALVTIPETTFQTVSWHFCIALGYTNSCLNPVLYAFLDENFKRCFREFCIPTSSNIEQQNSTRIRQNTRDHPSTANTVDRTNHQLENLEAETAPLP
UniProt P41146: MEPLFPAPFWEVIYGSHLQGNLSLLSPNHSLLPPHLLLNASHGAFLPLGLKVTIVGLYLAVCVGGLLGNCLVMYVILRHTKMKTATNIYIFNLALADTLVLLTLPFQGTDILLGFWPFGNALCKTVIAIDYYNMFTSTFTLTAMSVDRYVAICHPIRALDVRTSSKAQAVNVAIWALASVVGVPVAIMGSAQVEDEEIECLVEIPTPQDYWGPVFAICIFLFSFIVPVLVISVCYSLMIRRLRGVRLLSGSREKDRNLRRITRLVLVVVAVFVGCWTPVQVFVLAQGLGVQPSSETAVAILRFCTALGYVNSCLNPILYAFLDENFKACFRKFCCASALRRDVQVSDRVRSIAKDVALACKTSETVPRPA

Tests used:
[1] = target: human μ-opiate receptor (Homo sapiens, UniProt P35372); experiment: μ-opiate receptor binding assay with [3H]-naloxone (CHO-K1 membrane preparation); conditions: for % Inhibition (μ) [1 μM]: test concentration 1 μmol/l, 1 nmol/l [3H]-naloxone; for Ki: read-out: Ki (μ) Mean, mean, Cheng-Prusoff conversion
[2] = target: ORL 1-receptor (Homo sapiens, UniProt P41146); experiment: ORL 1 receptor binding assay with 3H-nociceptin/orphanin FQ (membranes of recombinant CHO-ORL 1 cells); conditions: 0.5 nM 3H-nociceptin/orphanin FQ; for % Inhibition (ORL1) [1 μM]: c = 1 μM; for Ki: read-out: Ki (ORL1) Mean, mean
[3] = tested on: sodium channel binding site 2; experiment: [3H] BTX binding to the sodium channel (BTX assay, synaptosomes); parameters: species or system rat
[4] = Nephelometric solubility study (phosphate buffer pH 7.4); type: physicochemical

CN(C)C1(c2ccccc2)CCC(N(C(=O)C(F)(F)F)C(Cc2c[nH]c3ccccc23)c2nnn[nH]2)CC1 (stereo not shown)
% Inhibition (μ) [1 μM] [1]: 72%
% Inhibition (ORL1) [1 μM] [2]: 39%

CN(C)C1(c2ccccc2)CCC(N[C@H](Cc2c[nH]c3ccccc23)c2n[nH]c(=O)o2)CC1 (stereo partly shown)
% Inhibition (μ) [1 μM] [1]: 80%
Inhibition (BTX) Mean [% at 10 μM] [3]: 43%
% Inhibition (ORL1) [1 μM] [2]: 53%

Cc1noc([C@H](Cc2c[nH]c3ccccc23)NC2CCC(c3ccccc3)(N(C)C)CC2)n1 (stereo partly shown)
% Inhibition (μ) [1 μM] [1]: 93%
% Inhibition (ORL1) [1 μM] [2]: 93%

CN(C)C(=O)[C@H](Cc1c[nH]c2ccccc12)NC1CCC(c2ccccc2)(N(C)C)CC1 (single isomer, unassigned)
Ki [1]: 195 nM
Ki [2]: 60 nM

CN(C)C(=O)[C@H](Cc1c[nH]c2ccccc12)NC1CCC(c2ccccc2)(N(C)C)CC1.Cl.Cl (single isomer, unassigned)
% Inhibition (μ) [1 μM] [1]: 72%

CN(C)C1(c2ccccc2)CCC(NC(Cc2c[nH]c3ccccc23)c2nnn[nH]2)CC1 (single isomer, unassigned)
Ki [1]: 340 nM
% Inhibition (ORL1) [1 μM] [2]: 26%
Ki [2]: 2800 nM

CN(C)C1(c2ccccc2)CCC(N[C@H](Cc2c[nH]c3ccccc23)c2n[nH]c(=O)o2)CC1 (single isomer, unassigned)
Ki [1]: 7 nM
% Inhibition (μ) [1 μM] [1]: 97%
% Inhibition (ORL1) [1 μM] [2]: 91%
Ki [2]: 8 nM

Cc1cnc([C@H](Cc2c[nH]c3ccccc23)NC2CCC(c3ccccc3)(N(C)C)CC2)o1 (single isomer, unassigned)
Ki [1]: 18 nM
% Inhibition (ORL1) [1 μM] [2]: 97%
Ki [2]: 4 nM

Cc1csc([C@H](Cc2c[nH]c3ccccc23)NC2CCC(c3ccccc3)(N(C)C)CC2)n1 (single isomer, unassigned)
Ki [1]: 9 nM
% Inhibition (ORL1) [1 μM] [2]: 86%
Ki [2]: 20 nM
Nephelometry (lower boundary) ([4]; 10 mM phosphate buffer pH 7.4, 1% DMSO, 2 h at 37° C.): 100 µM
solubility in aqueous media compared to structurally similar compounds (C-4 to C-6) ([4]; comparison in words): better solubility
